Laboratory results taken from ChEMBL document CHEMBL6153079, “Discovery of noncovalent diaminopyrimidine-based Inhibitors for glioblastoma via a dual FAK/DNA targeting strategy” (Eur J Med Chem, 2025).

Sequences of proteins named here, by UniProt entry; tags and fusion partners are left off.
UniProt Q05397, whole entry, looked up: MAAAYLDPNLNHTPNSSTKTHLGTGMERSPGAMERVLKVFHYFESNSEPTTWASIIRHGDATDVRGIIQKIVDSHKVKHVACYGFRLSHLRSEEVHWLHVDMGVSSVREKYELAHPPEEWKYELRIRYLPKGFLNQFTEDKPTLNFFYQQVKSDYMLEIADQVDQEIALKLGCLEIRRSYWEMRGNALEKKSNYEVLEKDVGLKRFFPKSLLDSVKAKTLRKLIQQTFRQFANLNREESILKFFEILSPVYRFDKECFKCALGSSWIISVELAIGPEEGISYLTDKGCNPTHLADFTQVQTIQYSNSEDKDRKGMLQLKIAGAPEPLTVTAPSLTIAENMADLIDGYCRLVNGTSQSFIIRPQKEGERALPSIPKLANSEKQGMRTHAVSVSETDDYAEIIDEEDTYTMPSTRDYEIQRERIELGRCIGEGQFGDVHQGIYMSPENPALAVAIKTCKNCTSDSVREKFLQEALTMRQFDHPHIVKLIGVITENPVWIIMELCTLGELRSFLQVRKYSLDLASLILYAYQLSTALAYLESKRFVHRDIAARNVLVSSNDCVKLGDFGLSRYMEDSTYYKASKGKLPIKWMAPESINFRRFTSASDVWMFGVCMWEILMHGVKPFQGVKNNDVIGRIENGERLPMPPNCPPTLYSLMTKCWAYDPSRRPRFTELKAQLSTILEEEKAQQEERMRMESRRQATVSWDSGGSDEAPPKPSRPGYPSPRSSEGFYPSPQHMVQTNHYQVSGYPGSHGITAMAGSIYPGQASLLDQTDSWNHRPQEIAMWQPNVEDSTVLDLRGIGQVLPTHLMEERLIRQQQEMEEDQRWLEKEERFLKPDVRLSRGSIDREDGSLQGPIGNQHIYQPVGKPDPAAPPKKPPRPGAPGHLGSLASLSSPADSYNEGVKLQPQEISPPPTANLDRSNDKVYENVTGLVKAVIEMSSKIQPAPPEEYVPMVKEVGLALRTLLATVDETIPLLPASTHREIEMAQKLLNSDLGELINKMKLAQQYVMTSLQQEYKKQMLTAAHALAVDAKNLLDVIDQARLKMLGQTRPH

How the values were obtained:
[1] = target: T1, Focal adhesion kinase 1 (Homo sapiens, UniProt Q05397); test: Inhibition of FAK (unknown origin) at 50 nM relative to control
[2] = target: T1, Focal adhesion kinase 1; test: Inhibition of FAK (unknown origin) at 10 nM relative to control

SMILES: O=C(O)c1ccc(N(CCCl)CCCl)cc1
- inhibition [1]: 7.82%
- inhibition [2]: 1.42%
